Laboratory results as given in PubChem BioAssay.
This is a selection; strong and weak results do not stand in their true shares. This is one part of the list. Activity calls are given as the source filed them.

Chains of the proteins cited; added tags and fusions are not shown. Lines headed by an entry give the natural chain unless they say otherwise; changes in a name come on top.
UniProt P98170, whole entry, looked up: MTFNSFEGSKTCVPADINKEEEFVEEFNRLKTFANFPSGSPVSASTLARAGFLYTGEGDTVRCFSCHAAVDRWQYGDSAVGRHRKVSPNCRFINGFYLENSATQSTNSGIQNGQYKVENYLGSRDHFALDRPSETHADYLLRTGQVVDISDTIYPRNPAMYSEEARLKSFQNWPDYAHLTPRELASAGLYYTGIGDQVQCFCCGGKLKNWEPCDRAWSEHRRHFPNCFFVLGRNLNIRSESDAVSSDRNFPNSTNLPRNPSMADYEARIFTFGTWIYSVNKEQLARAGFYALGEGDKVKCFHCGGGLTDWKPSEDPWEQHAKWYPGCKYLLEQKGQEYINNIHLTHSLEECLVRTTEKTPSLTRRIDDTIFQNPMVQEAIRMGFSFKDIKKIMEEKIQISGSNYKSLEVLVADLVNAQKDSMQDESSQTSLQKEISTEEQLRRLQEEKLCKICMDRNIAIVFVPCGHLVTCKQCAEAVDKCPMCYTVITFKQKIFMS
UniProt Q62424: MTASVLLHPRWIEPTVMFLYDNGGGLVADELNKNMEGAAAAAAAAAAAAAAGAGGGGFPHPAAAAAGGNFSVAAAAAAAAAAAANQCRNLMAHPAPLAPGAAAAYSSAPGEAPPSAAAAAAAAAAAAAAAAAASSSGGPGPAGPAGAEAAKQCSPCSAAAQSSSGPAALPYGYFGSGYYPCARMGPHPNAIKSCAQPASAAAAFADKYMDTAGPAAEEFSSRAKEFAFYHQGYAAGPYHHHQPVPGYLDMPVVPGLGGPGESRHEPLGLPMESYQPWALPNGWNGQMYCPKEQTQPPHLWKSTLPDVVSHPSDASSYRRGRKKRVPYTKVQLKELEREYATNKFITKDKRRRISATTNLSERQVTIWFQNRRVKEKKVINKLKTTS

What was measured:
[1] = compound effects on multiple myeloma cell viability – MM1S, calcein-AM fluorescence, 48 h, basal, profiling panel (AID 1165); conditions: higher = more signal
[2] = calcein-AM signal in unstimulated myeloma cells – cell-based, calcein-AM fluorescence, 48 h, PK04 Diversity Set, profiling panel (AID 1166); conditions: RPMI8226 myeloma viability, higher = more signal;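 note: cells grown under basal conditions without added stimulus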
[3] = JC-1 mitochondrial signal, unstimulated HepG2 cells – cell-based, JC-1 fluorescence, 24 h, 100 nL compound, profiling panel (AID 1167); conditions: HepG2 mitochondrial potential, higher = more signal
[4] = JC-1 mitochondrial signal, unstimulated adipocytes – cell-based, JC-1 fluorescence, 3T3-L1 adipocytes, 24 h, 100 nL compound, profiling panel (AID 1168); conditions: JC-1 mitochondrial fluorescence, higher = more signal, called active from +8 up or from −8 down
[5] = JC-1 mitochondrial signal, unstimulated myeloma cells – cell-based, JC-1 fluorescence, RPMI8226, 24 h, 100 nL compound, profiling panel (AID 1169); conditions: JC-1 mitochondrial potential fluorescence, higher = more signal
[6] = JC-1 mitochondrial signal, unstimulated MM1S myeloma – cell-based, JC-1 fluorescence, 24 h, 100 nL compound, profiling panel (AID 1170); conditions: MM1S mitochondrial potential, higher = more signal
[7] = resazurin metabolic signal in A549 cells – cell-based, resazurin fluorescence, 24 h, PK04 Diversity Set, profiling panel (AID 1171); conditions: A549 viability, higher = more signal, called active from +8 up or from −8 down
[8] = resazurin metabolic signal in HepG2 cells – cell-based, resazurin fluorescence, 24 h, PK04 Diversity Set, profiling panel (AID 1172); conditions: HepG2 viability, higher = more signal
[9] = budding yeast growth changes without added modifier – OD600, strain BY4716, 24 h, basal condition, primary screen (AID 1173); conditions: S. cerevisiae BY4716 growth, OD600, 24 h; higher = more signal, called active from +8 up or from −8 down
[10] = viability profiling in MM1S myeloma cells – cell-based, resazurin fluorescence, basal, 24 h, PK04 Diversity Set, profiling panel (AID 1174); conditions: higher = more signal, called active from +8 up or from −8 down
[11] = growth modulation of vineyard yeast isolate – strain RM11-1a, OD600, basal, 24 h, primary screen (AID 1177);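 note: cultures grown under basal conditions with no added stressor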; conditions: S. cerevisiae RM11-1a growth, OD600, 24 h; higher = more signal, called active from +8 up or from −8 down
[12] = viability profiling in RPMI8226 myeloma cells – cell-based, resazurin fluorescence, basal, 24 h, PK04 Diversity Set, profiling panel (AID 1180); conditions: higher = more signal;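 note: RPMI8826 multiple myeloma cell line at 5000 cells per well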
[13] = molecular target: E3 ubiquitin-protein ligase XIAP (Homo sapiens) (UniProt P98170); assay: small molecules binding XIAP protein – biophysical, small-molecule microarray, fluorescence 635 nm, primary screen (AID 1181); conditions: higher = more signal;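 note: score merges 667 nm emission and signal to noise over triplicate slides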
[14] = system: XIP peptide (Xip251-270) binding; assay: XIP fragment 251-270 binding compounds – biochemical, small-molecule microarray, fluorescence 635/667 nm, 0.1 µg/mL protein, primary screen (AID 1182); conditions: fluorescent protein binding, 635 nm, higher = more signal, called active from +8 up or from −8 down
[15] = system: XIP peptide (Xip251-270); assay: compounds binding XIP fragment 251-270 – biochemical, small-molecule microarray, fluorescence 635/667 nm, 0.5 µg/mL protein, primary screen (AID 1183); conditions: fluorescence 635 nm, higher = more signal
[16] = molecular target: Homeobox protein Hox-A13 (Mus musculus) (UniProt Q62424); assay: disruptors of Hoxa13 oligonucleotide interaction – biochemical, fluorescence polarization, labeled oligonucleotide, primary screen (AID 1185); conditions: Hoxa13:DNA binding, 15 min, higher = more signal, called active from +8 up or from −8 down

SMILES | z-score [1] | z-score [2] | z-score [3] | z-score [4] | z-score [5] | z-score [6] | z-score [7] | z-score [8] | z-score [9] | z-score [10] | z-score [11] | z-score [12] | composite z-score [13] | composite z-score [14] | composite z-score [15] | z-score [16]
COP(=O)(/N=C1/CC(CCCO)=CC(c2ccc(CN3CCCC3)cc2)N1Cc1cccc(OC(F)(F)F)c1)OC (stereo not drawn) | -3.32 | -0.145 | 2.86 | inactive: -0.059 | -0.703 | -2.06 | inactive: 0.634 | -0.495 | inactive: -2.92 | inactive: 0.0702 | inactive: -1.64 | 0.212 | 0.199 | inactive: 1.65 | 0.0666 | inactive: -5.3
CN1/C(=N\P(=O)(Oc2ccccc2)Oc2ccccc2)CC(CCCO)=CC1C1CC1 (stereo not drawn) | 0.544 | 1.02 | 1.38 | inactive: -0.0671 | -0.893 | 0.0912 | inactive: -1.64 | -1.08 | inactive: -0.229 | inactive: -1.02 | inactive: -0.809 | -0.491 | -0.165 | inactive: -0.126 | 0.216 | inactive: -5.81
COP(=O)(/N=C1/CC(c2ccc(CO)cc2)=CC(C2CC2)N1Cc1cc2c(cc1Br)OCO2)OC (stereo not drawn) | -0.953 | -2.02 | 3.17 | inactive: 0.42 | -0.393 | 0.0277 | inactive: -0.126 | 0.0523 | inactive: -5.74 | inactive: -0.248 | inactive: -2.05 | -0.508 | 0.269 | inactive: 0.635 | 0.52 | inactive: -2.57
O=P(/N=C1/CC(c2ccc(CO)cc2)=CC(c2cccs2)N1Cc1cccc(OC(F)(F)F)c1)(Oc1ccccc1)Oc1ccccc1 (stereo not drawn) | -3.27 | -3.69 | -3.74 | inactive: 0.0427 | -0.841 | -0.31 | inactive: 0.422 | -0.373 | inactive: -2.83 | inactive: -1.21 | inactive: 0.171 | -1.4 | -0.0476 | inactive: 1.24 | 0.542 | inactive: -2.62
O=P(/N=C1/CC(CCCO)=CC(c2ccc(CN3CCCC3)cc2)N1Cc1cc2c(cc1Br)OCO2)(Oc1ccccc1)Oc1ccccc1 (stereo not drawn) | -0.29 | -0.195 | 0.396 | inactive: -0.499 | 1.21 | -0.367 | inactive: 0.65 | 0.572 | inactive: -0.607 | inactive: 0.101 | inactive: -0.529 | -0.253 | -0.0172 | inactive: 1.24 | 0.595 | inactive: -2.59
O=P(/N=C1/CC(CCCO)=CC(C2CC2)N1Cc1sc2ccccc2c1Cl)(Oc1ccccc1)Oc1ccccc1 (stereo not drawn) | -2 | -1.68 | 0.0903 | inactive: 1.21 | -0.595 | -0.16 | inactive: -1.52 | -0.573 | inactive: -4.33 | inactive: -1.04 | inactive: 1.08 | -0.924 | 0.0605 | inactive: 0.0895 | 0.729 | inactive: -3.86
COP(=O)(/N=C1/CC(CCCO)=CC(C)N1Cc1cccc(OC(F)(F)F)c1)OC (stereo not drawn) | 0.969 | 0.688 | 1.55 | inactive: 0.821 | -0.634 | 0.029 | inactive: -0.64 | 0.113 | inactive: -2.69 | inactive: 0.768 | inactive: -2.02 | 0.299 | 0.122 | inactive: 1.45 | -0.288 | inactive: -4.67
CC1C=C(CCCO)C/C(=N/P(=O)(Oc2ccccc2)Oc2ccccc2)N1Cc1cccc(OC(F)(F)F)c1 (stereo not drawn) | -0.39 | -1.2 | 0.216 | inactive: 0.543 | 1.68 | 1.49 | inactive: -1.21 | -0.955 | inactive: -1.95 | inactive: -0.681 | inactive: 0.311 | -0.816 | 0.133 | inactive: -0.416 | -0.217 | inactive: -4.93
